Data from patent US6087401A, “Cyclopentenones, process for preparing the same, and the use thereof” (Takara Shuzo Co., Ltd., priority 1996, dated 2000).

Experiment: stability of the cyclopentenone in solution (TLC)
Details: 25 mM in water or 10 mM tris-HCl (pH 7), one month, room temperature and 4° C.

In the case of O=C1C=CC(O)C1O (stereo not shown) [the cyclopentenone, 4,5-dihydroxy-2-cyclopenten-1-one], the stability is reported as “some decomposed matters after one month although mostly nondecomposed”.
